This data set can be described thus: Particle size measurement before and after size reduction (Mastersizer, NiComp 370, Zetasizer). Format: physicochemical. To be noted: epinephrine base first sample in water. The method, then:
Nanoparticles were fabricated from epinephrine base and epinephrine bitartrate (Bit) using high energy fluidization (microfluidization) techniques. These techniques involve the use of oversaturated solutions of various solvents, particularly water and isopropanol, at various temperatures and pressures ranging from about 8,000 psi to 30,000 psi and to about 8.3° to 43.3° C. under various passes. Particle size was measured before and after size reduction using a Mastersizer (Malvern) and/or a NiComp 370 Submicron Particle Sizer (NiComp) and nano-sized particles were confirmed using laser diffraction techniques. The particles were lyophilized (freeze-dried) using a bench top lyophilizer (ART Inc.).

For the compound `CNC[C@H](O)c1ccc(O)c(O)c1` [Epinephrine Base, epinephrine], the “Size After Fabrication (110 F., 30 Kpsi) (nm)” value was 273.9 nm.

The values are drawn from patent US10682316B2, “Methods for fabrication of epinephrine bitartrate nanoparticles and epinephrine bitartrate nanoparticles fabricated thereby” (NOVA SOUTHEASTERN UNIVERSITY, priority 2010, dated 2020).
